Screening results from PubChem BioAssay.
This is a sample that favours compounds with a hit; in the whole collection about 1.7% have one here.
Pin1 inhibitor: blocks the human prolyl isomerase Pin1; Q13526; Pin1 FP peptide displacement, HiFluor488, 10 min; Potency, µM (titrated, usually from 115 µM), without a hit: at the highest dose activity, negative = inhibition, actives largely listed as inhibitors; hit rate 0.009% among 390,000; AID 504891; active means well fitted inhibition curve with a large enough effect in the polarisation, with a control signal flat, not every such curve was filed as active; inconclusive means small, poorly fitted or top-dose-only effect, or effect the other way, or a change in a side signal; inactive means no such curve, though single readings can be large or run the other way; the % refers to the polarisation; further: potency means the concentration at half of the fitted maximal effect; on the % scale 0 is the no-effect control and ±100 the full control effect
GLP-1R inv ag: GLP-1 receptor (human) inverse agonism | Potency, µM (doses to about 38.3 µM), for the others: top-dose activity change, negative = inhibition, most hits filed as inhibitors | hit rate 1.6% among 410,000 | HEK293 GLP-1R CRE-luciferase, luminescence, 24 h; GLP-1R form is constitutively active | P43220; further: potency means the concentration at half of the fitted maximal effect; on the % scale 0 is the no-effect control and ±100 the full control effect; nearly all actives have a fitted effect of over 55% in size
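HEK293 cells stably co-expressing a cAMP-responsive luciferase reporter and constitutively active GLP-1R were seeded, incubated 12 h, then exposed to compounds for 24 h at 37 C. Luminescence was read 12 min after detection reagent; inverse agonists lower signal.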
GLP1R cytotox: cytotoxicity in counter-screen for GLP-1R inverse agonists. HEK293 cAMP-luciferase reporter cells, luminescence, 24 h. Potency, µM (top dose mostly 38.3 µM), for inactives: at the highest dose activity change, negative = inhibition, actives largely listed as inhibitors. hit rate 0.13% among 410,000;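 further: loss of luciferase light is scored as toxicity; potency means the concentration at half of the fitted maximal effect; on the % scale 0 is the no-effect control and ±100 the full control effect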
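To flag toxic compounds, the library was rerun on cells for 24 hr at 37 deg C and 5% CO2. Viability-linked luminescence was captured 12 min after adding luciferase detection reagent.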
miR-21 reporter: miR-21 reporter, rising signal | HeLa miR-21 FLuc reporter, luciferase, 48 h | Potency, µM (highest dose often 38.3 µM), for inactives: at the top dose reporter change, positive = more light | 340,000 tested, under 10 active | AID 2288; active = well fitted rising curve with a large enough effect; inconclusive = small, poorly fitted or top-dose-only effect; inactive = no such curve, though single readings can be large or run the other way;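 further: % of control where 0% means no effect; miR-21 action dims this reporter so a rising signal means less miR-21 action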
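HeLa cells stably expressing CMV-driven firefly luciferase with a downstream miR-21 binding sequence, endogenously expressing miR-21, were treated with titrations (up to about 40uM final) for 48 hours at 37 degree Celsius. Luciferase luminescence was read after lysis.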
PTHR1 agonist: PTHR1 (human) receptor agonism; Q03431; HEK293 GP2 PTHR1 cells, GloSensor cAMP luminescence, 1 h; Potency, µM (highest dose often 115 µM), without a hit: top-dose activation, usual class: activators; hit rate 0.075% among 410,000; AID 743266; further: potency means the concentration at half of the fitted maximal effect; nearly all actives have a fitted effect of over 55% in size
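HEK-293-derived GP2 cells expressing PTHR1 and a GloSensor cAMP reporter, 3,000/well, plated overnight, given luciferin plus IBMX (each 0.5 mM as added) for 1 h at 37 °C, then compound for 1 h at 37 °C. Luminescence was read after 15 min at room temperature.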
GLP-1R agonist: agonists of human GLP-1 receptor. P43220. HEK293 GLP-1R CRE-luciferase, luminescence, 4-6 h; cells express a hypersensitive GLP-1R form. Potency, µM (highest dose often 45.6 µM), for the others: at the top dose activation, hits mostly activators. hit rate 0.007% among 380,000; further: potency means the concentration at half of the fitted maximal effect; % of control where 0% means no effect
Starred values were filed as active, the others as inactive; i = inactive; ? = inconclusive; / = no result; [ ] = dose if it differs, or a comment. Unless noted, the call rests on the fitted dose curve; in most records, active means well fitted curve in the direction sought with a large enough effect; inconclusive means small, poorly fitted or top-dose-only effect, or another doubt; inactive means no such curve, though single readings can be large; an effect the other way counts as inactive or inconclusive.

1) CC1(C(=O)NCc2ccco2)Cc2c(-c3cccc(C(F)(F)F)c3)ccnc2O1 (stereo not given)
2) CN(C)c1ccc(-c2ccnc3c2CC(C)(C(=O)NCc2cccs2)O3)cc1 (stereo not given)
3) CC1(C(=O)NCc2cccs2)Cc2c(-c3ccccc3)ccnc2O1 (stereo not given)
4) CN1C2CCC1CC(NC(=O)n1c(=O)[nH]c3ccccc31)C2 (stereo not given)
5) Cc1ccc(NC(=O)N2CCCC(c3nc(-c4ccc(F)cc4)no3)C2)cc1 (stereo not given)

assay / entry	1	2	3	4	5
Pin1 inhibitor	/	/	/	/	3.4%
GLP-1R inv ag	2.24µM*	?	4.47µM*	/	7.94µM*
GLP1R cytotox	?	?	?	/	?
miR-21 reporter	/	/	/	/	-19.3%
PTHR1 agonist	-12.6%	-22.9%	-12.0%	/	-43.4%
GLP-1R agonist	16.1%	-1.4%	7.6%	4.0%	1.0%

6) COc1ccc(N2CCN(C(=O)CSc3nnc4n3C(C)(C)Cc3ccccc3-4)CC2)cc1
7) Cn1c(=O)cc(SCC(=O)N2CCCC2)c2ccccc21
8) Cc1ccc(Cl)cc1N1CCN(C(=O)CSc2cc(=O)n(C)c3ccccc23)CC1
9) Cc1ccc(Cl)cc1N1CCN(C(=O)CSc2nnc3n2C(C)(C)Cc2ccccc2-3)CC1
10) CC(=O)NCc1nc2cccnc2n1Cc1ccccc1

assay / entry	6	7	8	9	10
Pin1 inhibitor	-0.6%	-1.2%	12.6%	1.1%	1.5%
GLP-1R inv ag	0.0%	17.7%	10µM*	3.98µM*	2.5%
GLP1R cytotox	-6.1%	-13.7%	-18.4%	-24.7%	-2.9%
miR-21 reporter	16.8%	0.1%	14.6%	14.9%	0.0%
PTHR1 agonist	-22.4%[57.5 µM]	i	-38.9%	-32.1%	-10.5%
GLP-1R agonist	-7.9%	5.5%	/	-18.3%	/

11) O=C(Nc1cc(C(F)(F)F)ccc1Cl)C(NCc1ccccc1)c1ccccc1 (stereo not given)
12) Cc1onc(-c2ccccc2)c1CNC(=O)Nc1cccc(Cl)c1
13) Cc1cc(C)cc(NC(=O)NCc2c(-c3ccccc3)noc2C)c1
14) O=C(CN1C(=O)NC(c2ccccc2)(c2ccccc2)C1=O)N1CCN(c2ccccc2F)CC1
15) O=C(CN1C(=O)NC(c2ccccc2)(c2ccccc2)C1=O)N1CCN(c2ccc(F)cc2)CC1

assay / entry	11	12	13	14	15
Pin1 inhibitor	18.7%	?	-0.2%	23.0%	11.2%
GLP-1R inv ag	3.55µM*	8.91µM*	3.7%	?	7.94µM*
GLP1R cytotox	-5.5%	-6.7%	-6.3%	-2.4%	?
miR-21 reporter	2.7%	20.0%	1.3%	/	/
PTHR1 agonist	-30.3%	-24.3%	-4.8%	i	i
GLP-1R agonist	0.4%	12.6%	9.9%	-5.3%	0.3%

16) Cn1c(Sc2ccc(Cl)cc2)c(C=O)c2ccccc21
17) Cc1cccc(Sc2c(C=O)c3ccccc3n2C)c1
18) COc1ccc(CNC(=O)CCc2c(C)c3cc4c(C)c(C)oc4cc3oc2=O)cc1OC
19) NC(=O)C1CCN(c2nccc(Cl)n2)CC1
20) COc1cccc(CN(C)C(=O)C(Cc2ccccc2)NC(=O)c2ccccc2)c1OC (stereo not given)

assay / entry	16	17	18	19	20
Pin1 inhibitor	-2.4%	-3.7%	-2.1%	-4.0%	-4.9%
GLP-1R inv ag	3.16µM*	2.82µM*	-7.6%	/	8.91µM*
GLP1R cytotox	?	-26.7%	-1.7%	/	-17.2%
miR-21 reporter	18.7%	0.8%	-7.2%	/	/
PTHR1 agonist	-38.2%[57.5 µM]	-12.8%[57.5 µM]	12.0%	/	-16.7%
GLP-1R agonist	-35.2%	0.4%	/	/	6.7%

Record cards, as listed above.
`Cc1onc(-c2ccccc2)c1CNC(=O)Nc1cccc(Cl)c1` is listed as Pin1 inhibitor = ?; GLP-1R inv ag = 8.91µM*; GLP1R cytotox = -6.7%; miR-21 reporter = 20.0%; PTHR1 agonist = -24.3%; GLP-1R agonist = 12.6%
`Cc1ccc(NC(=O)N2CCCC(c3nc(-c4ccc(F)cc4)no3)C2)cc1` (stereo not given) is listed as Pin1 inhibitor = 3.4%; GLP-1R inv ag = 7.94µM*; GLP1R cytotox = ?; miR-21 reporter = -19.3%; PTHR1 agonist = -43.4%; GLP-1R agonist = 1.0%

Later entries
21) O=C(N/N=C(\CC(=O)c1cccs1)C(F)(F)F)c1cccnc1
22) CCCCCCCCCCCCCCCC(=O)OC[C@H](O)[C@H]1OC[C@@H](O)[C@@H]1O
23) O=C1CC(=O)OC(c2ccc([N+](=O)[O-])cc2)O1
24) CCn1c(C(=O)NCc2ccc(C)cc2)cc2sc(Cl)cc21
25) CN1CCc2c(sc(NC(=O)c3ccc(S(=O)(=O)N4CCc5ccccc54)cc3)c2C(N)=O)C1

assay / entry	21	22	23	24	25
Pin1 inhibitor	-5.9%	/	/	6.2%	/
GLP-1R inv ag	2.24µM*	/	?	0.1%	/
GLP1R cytotox	3.2%	/	5.01µM*	0.7%	/
miR-21 reporter	-4.8%	/	/	9.0%	0.0%
PTHR1 agonist	-14.4%	/	-94.0%	-19.3%	/
GLP-1R agonist	3.7%	-0.2%	-13.7%	/	/

26) CNC(=O)c1c(NC(=O)c2ccc(S(=O)(=O)N3CCCc4ccccc43)cc2)sc2c1CCN(C)C2
27) O=C(Nc1ccc2c(c1)N(C1CCCC1)C(=O)c1ccccc1S2)c1cccc(F)c1
28) Cc1cc(C)c(CSc2ncc(-c3ccc([N+](=O)[O-])cc3)[nH]2)c(C)c1
29) O=[N+]([O-])c1ccc(-c2cnc(SCc3ccccc3Cl)[nH]2)cc1
30) N=c1c2c(-c3ccccc3)c(-c3ccccc3)n(Cc3ccco3)c2ncn1CCO

assay / entry	26	27	28	29	30
Pin1 inhibitor	?	22.6%	69.3%	26.3%	2.4%
GLP-1R inv ag	4.47µM*	?	8.91µM*	10µM*	?
GLP1R cytotox	2.6%	6.6%	-12.6%	-6.7%	7.94µM*
miR-21 reporter	-8.0%	?	-1.3%	18.1%	?
PTHR1 agonist	-0.8%	i	-12.5%	-22.9%[57.5 µM]	i
GLP-1R agonist	13.8%	/	-35.9%	-6.8%	-10.5%

31) N=c1c2c(-c3ccccc3)c(-c3ccccc3)n(Cc3ccco3)c2ncn1CCCO
32) Cc1ccc(CNC(=O)c2ccc(-c3nc(CN4CCc5ccccc54)c(C)o3)cc2)cc1
33) Cc1oc(-c2ccc(C(=O)N(C)Cc3ccccc3)cc2)nc1CN1CCc2ccccc21
34) CCCCc1nc(NCCNC(=O)c2ccco2)c(C#N)c2c1CSC(C)(C)C2
35) CCCCc1nc(NCCNC(=O)c2ccccc2)c(C#N)c2c1CSC(C)(C)C2

assay / entry	31	32	33	34	35
Pin1 inhibitor	0.9%	10.1%	13.2%	/	23.8%
GLP-1R inv ag	?	-25.2%	11.2µM*	-2.5%	8.91µM*
GLP1R cytotox	?	-6.7%	0.1%	-38.8%	?
miR-21 reporter	29.3%	10.5%	?	1.5%	7.9%
PTHR1 agonist	i	-25.1%	-16.9%	i	-7.9%
GLP-1R agonist	4.8%	-7.3%	12.9%	12.2%	-33.7%

36) C=C[C@]1(C)C[C@@H](OC(=O)CO)[C@]2(C)C(C)CC[C@]3(CCC(=O)[C@H]32)[C@@H](C)[C@@H]1O (stereo not given in full)
37) Cc1cc(NC(=O)c2cccc(COc3ccc(Br)cc3)c2)no1
38) CCOC(=O)C1CCCN(c2ncnc3c2cnn3-c2ccc(C)c(Cl)c2)C1 (stereo not given)
39) CC(C)CC(=O)NC(NC(=S)Nc1cccc2cccnc12)C(Cl)(Cl)Cl (stereo not given)
40) CC(C)(C)c1ccc(OCCNC(=S)Nc2ccccc2)cc1
41) CCOC(=O)C1(CC2CCCCO2)CCN(Cc2nccn2-c2ccc(OC)cc2)CC1 (stereo not given)
42) CCOC(=O)C1(CC2CCCCO2)CCN(Cc2nccn2-c2cccc(C)c2)CC1 (stereo not given)

assay / entry	36	37	38	39	40	41	42
Pin1 inhibitor	/	6.8%	-1.0%	0.1%	?	3.0%	-0.3%
GLP-1R inv ag	/	1µM*	2.5%	7.94µM*	10µM*	-22.4%	10µM*
GLP1R cytotox	/	-34.6%	1.4%	-16.7%	5.62µM*	?	-28.6%
miR-21 reporter	/	-78.9%	-37.0%	21.5%	7.2%	-2.1%	-0.9%
PTHR1 agonist	/	-45.5%	-4.8%	i	-47.2%	i	i
GLP-1R agonist	-0.4%	-2.7%	/	-19.2%	9.1%	23.2%	16.8%
